Results published in patent US9714235B2, “Quinazoline derivatives, compositions thereof, and use as pharmaceuticals” (Shanghai Fochon Pharmaceutical Co., Ltd., priority 2013, dated 2017).

Experiments:
[1] = system: N87 (EGFR and ErbB2 overexpression) cells; test: Cell proliferation assay (MTS), N87; type: cell-based; settings: 72 h incubation
Description: (§1) Cell Proliferation Asssay
(§2) Materials and Preparation of Reagents
(§3) MTS testing kit was purchased from Promega. […] Dimethyl sulfoxide (DMSO) was purchased from Sigma.
(§4) Inhibition Activity of Cell Proliferation
(§5) In this assay, inhibition of EGFR and ErbB2 was detected by the inhibition of BT474 and N87 cells proliferation. BT474 cells were cultured in culture flasks to 40-80% confluence in DMEM plus 10% fetal bovine serum. […] Cells were collected and plated onto 96-well plates at desired cell density (BT474: 1000 cells/well; N87: 1000 cells/well). BT474 plates were incubated 48 h at 37° C., with 5% CO2 to adhere. N87 plates were incubated overnight at 37° C., with 5% CO2 to adhere. […] Place BT474 plates at 37° C., with 5% CO2 for 7d. Place N87 plates at 37° C., with 5% CO2 for 72 h. After removing the medium, 20 μl MTS/100 μl medium mixture solution were added to each well and incubate the plates for exactly 2 hours. Measure absorbance at 490 nm and 650 nm (reference wavelength). IC50 was calculated using GraphPad Prism 5.0.

[2] = system: BT474 (EGFR overexpression) cells; test: Cell proliferation assay (MTS), BT474; type: cell-based; settings: Homo sapiens, BT-474, 168 h, 7 d incubation
Description: as §1, §2, §3, §4, §5

| Structure (SMILES) | IC50 [1] | IC50 [2] |
| --- | --- | --- |
| CCOc1cc2ncnc(Nc3ccc(F)c(Cl)c3)c2cc1NC(=O)/C=C/CN1CC[C@@H]1COC [Example 4, (R,E)-N-(4-(3-chloro-4-fluorophenylamino)-7-ethoxyquinazolin-6-yl)-4-(2-(methoxymethyl)azetidin-1-yl)but-2-enamide] | 1.6 nM |  |
| CCOc1cc2ncnc(Nc3ccc(F)c(Cl)c3)c2cc1NC(=O)/C=C/CN1CC[C@H]1COC [Example 5, (S,E)-N-(4-(3-chloro-4-fluorophenylamino)-7-ethoxyquinazolin-6-yl)-4-(2-(methoxymethyl)azetidin-1-yl)but-2-enamide] | 8.1 nM | 7.8 nM |
| COCCOc1cc2ncnc(Nc3ccc(F)c(Cl)c3)c2cc1NC(=O)/C=C/CN1CC[C@@H]1COC [Example 6, (R,E)-N-(4-(3-chloro-4-fluorophenylamino)-7-(2-methoxyethoxy)quinazolin-6-yl)-4-(2-(methoxymethyl)azetidin-1-yl)but-2-enamide] | 1.9 nM |  |
| COCCOc1cc2ncnc(Nc3ccc(F)c(Cl)c3)c2cc1NC(=O)/C=C/CN1CC[C@H]1COC [Example 7, (S,E)-N-(4-(3-chloro-4-fluorophenylamino)-7-(2-methoxyethoxy)quinazolin-6-yl)-4-(2-(methoxymethyl)azetidin-1-yl)but-2-enamide] | 4.6 nM |  |
| COC[C@H]1CCN1C/C=C/C(=O)Nc1cc2c(Nc3ccc(F)c(Cl)c3)ncnc2cc1OCC1CC1 [Example 9, (R,E)-N-(4-(3-chloro-4-fluorophenylamino)-7-(cyclopropylmethoxy)quinazolin-6-yl)-4-(2-(methoxymethyl)azetidin-1-yl)but-2-enamide] | 15.5 nM |  |
| COC[C@@H]1CCN1C/C=C/C(=O)Nc1cc2c(Nc3ccc(F)c(Cl)c3)ncnc2cc1OCC1CC1 [Example 10, (S,E)-N-(4-(3-chloro-4-fluorophenylamino)-7-(cyclopropylmethoxy)quinazolin-6-yl)-4-(2-(methoxymethyl)azetidin-1-yl)but-2-enamide] | 32.8 nM |  |
| COC[C@H]1CCN1C/C=C/C(=O)Nc1cc2c(Nc3ccc(F)c(Cl)c3)ncnc2cc1OC[C@H]1COCCO1 [Example 14, (E)-N-(7-(((R)-1,4-dioxan-2-yl)methoxy)-4-(3-chloro-4-fluorophenylamino)quinazolin-6-yl)-4-((R)-2-(methoxymethyl)azetidin-1-yl)but-2-enamide] | 1.2 nM |  |
| COC[C@@H]1CCN1C/C=C/C(=O)Nc1cc2c(Nc3ccc(F)c(Cl)c3)ncnc2cc1OC[C@H]1COCCO1 [Example 15, (E)-N-(7-(((R)-1,4-dioxan-2-yl)methoxy)-4-(3-chloro-4-fluorophenylamino)quinazolin-6-yl)-4-((S)-2-(methoxymethyl)azetidin-1-yl)but-2-enamide] | 11.2 nM |  |
| COCC1CCN1C/C=C/C(=O)Nc1cc2c(Nc3ccc(F)c(Cl)c3)ncnc2cc1OC[C@@H]1COCCO1 (stereo partly drawn) [Example 17, (E)-N-(7-(((S)-1,4-dioxan-2-yl)methoxy)-4-(3-chloro-4-fluorophenylamino)quinazolin-6-yl)-4-(2-(methoxymethyl)azetidin-1-yl)but-2-enamide] | 5 nM | 4.8 nM |
| COC[C@H]1CCN1C/C=C/C(=O)Nc1cc2c(Nc3ccc(F)c(Cl)c3)ncnc2cc1OC[C@H]1[C@@H]2COC[C@@H]21 [Example 19, (E)-N-(7-((1R,5S,6r)-3-oxabicyclo[3.1.0]hexan-6-ylmethoxy)-4-(3-chloro-4-fluorophenylamino)quinazolin-6-yl)-4-((R)-2-(methoxymethyl)azetidin-1-yl)but-2-enamide] | 2.8 nM | 2.9 nM |
| COC[C@@H]1CCN1C/C=C/C(=O)Nc1cc2c(Nc3ccc(F)c(Cl)c3)ncnc2cc1OC[C@H]1[C@@H]2COC[C@@H]21 [Example 20, (E)-N-(7-((1R,5S,6r)-3-oxabicyclo[3.1.0]hexan-6-ylmethoxy)-4-(3-chloro-4-fluorophenylamino)quinazolin-6-yl)-4-((S)-2-(methoxymethyl)azetidin-1-yl)but-2-enamide] | 15.6 nM |  |
